From ChEMBL document CHEMBL1132024, “N-phosphonoalkyl-5-aminomethylquinoxaline-2,3-diones: in vivo active AMPA and NMDA(glycine) antagonists” (Bioorg Med Chem Lett, 1999)

Biological target: Glutamate NMDA receptor
Experiment: In vitro inhibition of binding of [3H]MDL-105519 towards glycine binding site of NMDA receptor in rat

Row | IC50 | Structure (SMILES)
1 | 370 nM | C[C@H](NCc1cc(Br)cc2nc(O)c(O)nc12)P(=O)(O)O
2 | 6 nM | C[C@@H](NCc1cc(Br)cc2[nH]c(=O)c(=O)[nH]c12)P(=O)(O)O
